Drawing on ChEMBL document CHEMBL5241090, “A comprehensive overview of β-carbolines and its derivatives as anticancer agents” (Eur J Med Chem, 2021), this text covers IC50 for one compound.

Amino acid sequences for entries named in this document (tags omitted).
UniProt Q00535, whole entry: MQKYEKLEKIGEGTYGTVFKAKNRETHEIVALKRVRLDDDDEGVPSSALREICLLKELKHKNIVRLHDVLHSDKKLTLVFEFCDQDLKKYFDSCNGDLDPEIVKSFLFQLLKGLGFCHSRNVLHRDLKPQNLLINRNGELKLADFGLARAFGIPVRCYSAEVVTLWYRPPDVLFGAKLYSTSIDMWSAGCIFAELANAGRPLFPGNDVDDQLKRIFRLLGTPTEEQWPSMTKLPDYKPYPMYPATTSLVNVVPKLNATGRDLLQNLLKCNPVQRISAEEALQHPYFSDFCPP

The target of the assay is Cyclin-dependent kinase 5/CDK5 activator 1 (Homo sapiens, UniProt Q00535). Nature of the assay: Inhibition of human CDK5/p25 nck5a. It counts as protein-complex assay.

Consider `COc1ccc2c(c1)[nH]c1c(C)nccc12` [HARMINE], for which the IC50 (usually the point on the concentration scale where inhibition reaches its midpoint) is 20 µM. This counts as double-digit micromolar.
